Results: US11208385B2, “N-substituted imidazole carboxylate compound, preparation method and use” (priority 2017, dated 2021)

Assays:
[1] = In vitro degradation experiment in rat liver homogenate (HPLC); assay type: in vitro ADME; conditions: rat liver homogenate at 5, 10, and 20 min
Method: In Vitro Degradation Experiment of Compounds.
Chromatographic condition: mobile phase is methanol: H2O=65:35, and the water phase contains 0.06% ammonium acetate; the flow rate is 1 mL/min; the column temperature is 25° C.
Apparatus: Agilent 1100 Series. Chromatographic column: Aglent Eclipse Plus C18 column, 5 μm 4.6*[…].
The linear range is 1-50 μg/mL.
After fasting for 24 h, male SD rats were treated to collect liver, and the water on the surface of liver was removed using the filter paper, then liver was weighed. […] Then, the homogenate was centrifugated at 10000 g for 20 min at the temperature of 4° C. The supernatant solution was collected, and 14 samples (2 mL) of liver homogenate were taken out and warmed to 37° C. in water bath. Each compound (content 10 mg/mL, 10 μl) was added, respectively, to make a concentration of 50 μg/mL in liver homogenate.
[…] After centrifugation, the supernatant solution was taken out and injected. The concentration of each compound at each time point was detected, that was divided by the initial concentration of each compound, to obtain the degradation ratio of each compound.

[2] = in vivo; cited from earlier work

Structure (SMILES) | Residual rate compared with etomidate [1] | Potency relative to etomidate [2]
COC(=O)C1(OC(=O)c2cncn2[C@H](C)c2ccccc2)CC1 [CPMM, reference compound] | lower than that of control drug etomidate | –
COC(=O)CCOC(=O)c1cncn1[C@H](C)c1ccccc1 [MOC-ET, reference compound] | lower than that of control drug etomidate | ⅕
